In ChEMBL document CHEMBL1155529 one finds inhibition data, which are given here for four compounds.

The chains behind the UniProt entries cited, without tags or fusion partners. Where a name states a change or a piece, a line headed by the entry shows the natural chain unless it says otherwise.
UniProt Q63016: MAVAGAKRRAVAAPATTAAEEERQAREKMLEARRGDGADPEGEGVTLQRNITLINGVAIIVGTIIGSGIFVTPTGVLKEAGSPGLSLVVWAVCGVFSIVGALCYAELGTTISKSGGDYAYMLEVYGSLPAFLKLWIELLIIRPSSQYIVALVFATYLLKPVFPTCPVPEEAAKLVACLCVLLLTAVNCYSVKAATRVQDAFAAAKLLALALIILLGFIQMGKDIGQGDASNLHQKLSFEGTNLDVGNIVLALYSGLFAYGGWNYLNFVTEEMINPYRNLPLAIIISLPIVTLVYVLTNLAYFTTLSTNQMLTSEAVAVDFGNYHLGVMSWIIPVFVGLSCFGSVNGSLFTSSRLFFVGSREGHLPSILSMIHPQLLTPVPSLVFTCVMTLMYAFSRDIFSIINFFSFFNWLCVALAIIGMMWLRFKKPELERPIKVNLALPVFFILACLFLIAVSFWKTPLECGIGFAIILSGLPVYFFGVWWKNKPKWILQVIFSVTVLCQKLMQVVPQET

For the assay, the target named is Large neutral amino acids transporter small subunit 1 (Rattus norvegicus) (UniProt Q63016). Description: Inhibition of LAT1-mediated L-[14C]leucine uptake in Sprague-Dawley rat brain by duel-labeled liquid scintillation counting.
In the case of `NC1(C(=O)O)Cc2ccccc2C1`, the inhibition entry was “Dose-dependent effect”.
Under `NC1(C(=O)O)Cc2ccc(N(CCCl)CCCl)cc2C1` (centres undefined) stands “Dose-dependent effect”; under `NC1(C(=O)O)CCc2cccc(N(CCCl)CCCl)c2C1` (centres undefined), “Dose-dependent effect”.
The same measure for `NC1(C(=O)O)CC2CC1c1ccccc12` (centres undefined): “Dose-dependent effect”.
